In patent US12139488B2, “Pyrido[3,2-d]pyrimidine compounds uses thereof for treating a proliferative disease” (Universite de Montreal, priority 2021, dated 2024):
Where two headings read alike, the source gives them in different places.

Amino acid sequences for entries named in this document (tags omitted).
UniProt P15056, whole entry: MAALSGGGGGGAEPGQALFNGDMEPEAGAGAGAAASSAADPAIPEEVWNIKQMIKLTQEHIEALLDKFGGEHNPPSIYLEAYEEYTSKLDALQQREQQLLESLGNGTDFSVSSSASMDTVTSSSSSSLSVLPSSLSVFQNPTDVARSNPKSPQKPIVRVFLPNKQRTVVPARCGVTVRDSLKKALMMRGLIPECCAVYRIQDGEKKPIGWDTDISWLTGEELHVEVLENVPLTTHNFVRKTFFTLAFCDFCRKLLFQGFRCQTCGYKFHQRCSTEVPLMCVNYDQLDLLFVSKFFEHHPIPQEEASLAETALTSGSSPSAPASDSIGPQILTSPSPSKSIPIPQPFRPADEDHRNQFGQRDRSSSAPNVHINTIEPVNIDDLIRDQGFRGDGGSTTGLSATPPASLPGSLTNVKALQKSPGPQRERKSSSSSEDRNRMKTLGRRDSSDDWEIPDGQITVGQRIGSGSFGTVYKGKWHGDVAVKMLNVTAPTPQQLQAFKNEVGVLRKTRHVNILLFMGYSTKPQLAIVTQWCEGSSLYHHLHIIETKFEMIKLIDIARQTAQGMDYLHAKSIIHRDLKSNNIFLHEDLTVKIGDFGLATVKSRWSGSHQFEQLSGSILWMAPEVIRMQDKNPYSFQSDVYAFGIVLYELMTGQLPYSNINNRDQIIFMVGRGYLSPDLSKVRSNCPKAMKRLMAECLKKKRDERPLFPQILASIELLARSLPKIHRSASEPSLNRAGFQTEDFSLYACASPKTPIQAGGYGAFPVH
UniProt P04049, whole entry: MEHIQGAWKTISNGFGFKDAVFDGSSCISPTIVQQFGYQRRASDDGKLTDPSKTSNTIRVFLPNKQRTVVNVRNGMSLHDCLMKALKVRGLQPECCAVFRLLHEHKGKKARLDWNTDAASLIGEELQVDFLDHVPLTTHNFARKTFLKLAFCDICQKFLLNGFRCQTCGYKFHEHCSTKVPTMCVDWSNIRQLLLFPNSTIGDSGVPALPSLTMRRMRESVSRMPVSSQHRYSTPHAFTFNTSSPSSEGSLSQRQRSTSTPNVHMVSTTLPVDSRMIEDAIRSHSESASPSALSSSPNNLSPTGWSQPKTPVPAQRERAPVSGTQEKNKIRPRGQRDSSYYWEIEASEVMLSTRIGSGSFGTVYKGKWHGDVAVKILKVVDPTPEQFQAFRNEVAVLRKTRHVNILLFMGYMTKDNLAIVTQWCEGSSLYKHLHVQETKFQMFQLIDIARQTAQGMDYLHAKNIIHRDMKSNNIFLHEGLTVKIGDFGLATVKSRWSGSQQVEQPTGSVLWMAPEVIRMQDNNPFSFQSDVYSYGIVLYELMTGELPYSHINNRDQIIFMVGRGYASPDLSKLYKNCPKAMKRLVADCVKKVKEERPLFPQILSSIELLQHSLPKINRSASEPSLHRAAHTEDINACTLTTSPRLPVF

How the values were obtained:
BRAF = BRAF (Homo sapiens (Human), UniProt P15056); assay: BRAF kinase activity assay (ADP-Glo)
CRAF = CRAF (Homo sapiens, UniProt P04049); assay: CRAF kinase activity assay (ADP-Glo)
[1] = tested on: pERK in HCT-116 cells (KRAS G13D); assay: Phospho-ERK inhibition (AlphaLISA SureFire Ultra p-ERK 1/2), HCT116; details: for HCT116 pERK % Ymin (lowest value of the IC50 curve): Ymin above −20% = minimal or no paradoxical activation
Summary of the method: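 Overnight-seeded cells received compound for an hour before lysis, and phospho-ERK1/2 was then measured with an AlphaLISA SureFire Ultra kit. Percent inhibition relative to vehicle, after trametinib background subtraction, gave IC50 by curve fitting.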

[2] = read-out: Kinase IC50 (nM), BRAF biochemical kinase assay, BRAF
[3] = read-out: Kinase IC50 (nM), CRAF biochemical kinase assay, CRAF
[4] = read-out: HCT116 pERK IC50, HCT116 cells
[5] = read-out: Kinase IC50 (nM) BRAF
[6] = read-out: Kinase IC50 (nM) CRAF
[7] = read-out: HCT116 pERK IC50, HCT116 cells, class symbol before the bracket
[8] = read-out: Kinase IC50 (nM) BRAF, tested form: formate
[9] = read-out: Kinase IC50 (nM) CRAF, tested form: formate
[10] = HCT116 cells, Ymin in brackets, tested form: formate
[11] = read-out: HCT116 pERK IC50, HCT116 cells, class symbol before the bracket, tested form: formate

Row | Structure (SMILES) | IC50 (BRAF; [2]) | IC50 (CRAF; [3]) | HCT116 pERK % Ymin (lowest value of the IC50 curve) ([1]; HCT116 cells) | IC50 [1, 4] | IC50 (BRAF; [5]) | IC50 (CRAF; [6]) | IC50 [1, 7] | HCT116 pERK Ymin % ([1]; HCT116 cells, Ymin in brackets) | further results
1 | CCN(Cc1ccncc1)C(=O)c1nn(-c2ccc3ncnc(Nc4c(F)ccc(NS(=O)(=O)c5cccc(F)c5C)c4F)c3n2)c2ccccc12 | – | – | – | – | < 1 nM | 10 to 50 nM | < 0.5 µM | −2.4% | –
2 | CC(C)(C)CN1CCN(c2cccc3c2nnn3-c2ccc3ncnc(Nc4c(F)ccc(NS(=O)(=O)c5cccc(Cl)c5Cl)c4F)c3n2)CC1 | 1 to 10 nM | 10 to 50 nM | −8% | 0.5 to 1 µM | – | – | – | – | –
3 | COC1CCN(c2cccc3c2nnn3-c2ccc3ncnc(Nc4c(F)ccc(NS(=O)(=O)c5cccc(Cl)c5Cl)c4F)c3n2)CC1 | 1 to 10 nM | 10 to 50 nM | −4% | < 0.5 µM | – | – | – | – | –
4 | O=C1CCC2(CCN(c3cccc4c3ncn4-c3ccc4ncnc(Nc5c(F)ccc(NS(=O)(=O)c6cccc(Cl)c6Cl)c5F)c4n3)CC2)O1 | 1 to 10 nM | < 10 nM | −10% | < 0.5 µM | – | – | – | – | –
5 | Cc1c(Cl)cccc1S(=O)(=O)Nc1ccc(F)c(Nc2ncnc3ccc(-n4nc(C(=O)N5CCN(C)CC5)cc4C)nc23)c1F | – | – | – | – | < 1 nM | > 50 nM | < 0.5 µM | −8.7% | –
6 | Cc1c(F)cccc1S(=O)(=O)Nc1ccc(F)c(Nc2ncnc3ccc(-n4nc(C(=O)N5CCC[C@@H](O)C5)c5ccccc54)nc23)c1F | – | – | – | – | 1 to 10 nM | 10 to 50 nM | < 0.5 µM | −6.4% | –
7 | CN(C)CC(=O)c1cn(-c2ccc3ncnc(Nc4c(F)ccc(NS(=O)(=O)c5ccccc5Cl)c4F)c3n2)c2ccccc12 | – | – | – | – | 1 to 10 nM | 10 to 50 nM | 1 to 10 µM | −5% | –
8 | Cc1c(F)cccc1S(=O)(=O)Nc1ccc(F)c(Nc2ncnc3ccc(-n4nc(C(=O)N5CCC6(CC5)CC(N)CO6)c5ccccc54)nc23)c1F (stereo not shown) | – | – | – | – | – | – | – | – | IC50 (BRAF; [8]): < 1 nM; IC50 (CRAF; [9]): 10 to 50 nM; HCT116 pERK Ymin % [1, 10]: −3.4%; IC50 [1, 11]: < 0.5 µM
9 | Cc1c(F)cccc1S(=O)(=O)Nc1ccc(F)c(Nc2ncnc3ccc(-n4nc(C(=O)NCc5ccccn5)c5ccccc54)nc23)c1F | – | – | – | – | 1 to 10 nM | 10 to 50 nM | < 0.5 µM | −6.2% | –
10 | CC(C)N1CCN(c2cccc3c2nnn3-c2ccc3ncnc(Nc4c(F)ccc(NS(=O)(=O)c5cccc(Cl)c5Cl)c4F)c3n2)CC1 [Example 619] | < 1 nM | < 10 nM | −13% | < 0.5 µM | – | – | – | – | –
11 | COc1ccc(S(=O)(=O)Nc2ccc(F)c(Nc3ncnc4ccc(-c5ccc(C)nc5)nc34)c2F)c(C)c1 | – | – | – | – | > 10 nM | > 50 nM | 1 to 10 µM | −1% | –
12 | Cc1c(F)cccc1S(=O)(=O)Nc1ccc(F)c(Nc2ncnc3ccc(-n4nc(C(=O)N5CCNC[C@@H]5C)c5ccccc54)nc23)c1F | – | – | – | – | – | – | – | – | IC50 (BRAF; [8]): 1 to 10 nM; IC50 (CRAF; [9]): > 50 nM; HCT116 pERK Ymin % [1, 10]: −13%; IC50 [1, 11]: < 0.5 µM
13 | Cc1c(Cl)cccc1S(=O)(=O)Nc1ccc(F)c(Nc2ncnc3ccc(-n4cc(C(=O)N5CC[C@H](N)C5)c5ccccc54)nc23)c1F | – | – | – | – | – | – | – | – | IC50 (BRAF; read-out: Kinase IC50 (nM) BRAF, tested form: formic acid salt): < 1 nM; IC50 (CRAF; read-out: Kinase IC50 (nM) CRAF, tested form: formic acid salt): 10 to 50 nM; HCT116 pERK Ymin % ([1]; HCT116 cells, Ymin in brackets, tested form: formic acid salt): 14%; IC50 ([1]; read-out: HCT116 pERK IC50, HCT116 cells, class symbol before the bracket, tested form: formic acid salt): 1 to 10 µM
14 | Cc1c(Cl)cccc1S(=O)(=O)Nc1ccc(F)c(Nc2ncnc3ccc(-n4nc(C(=O)N5CCNC(=O)C5)c5ccccc54)nc23)c1F | – | – | – | – | < 1 nM | < 10 nM | 0.5 to 1 µM | −6% | –
15 | Cc1c(F)cccc1S(=O)(=O)Nc1ccc(F)c(Nc2ncnc3ccc(-n4nc(C(=O)NCC5(O)CC5)c5ccccc54)nc23)c1F | – | – | – | – | 1 to 10 nM | 10 to 50 nM | 0.5 to 1 µM | −2.0% | –
16 | O=S(=O)(Nc1ccc(F)c(Nc2ncnc3ccc(-n4cnc5c(N6CCC(O)(CF)CC6)cccc54)nc23)c1F)c1cccc(Cl)c1Cl | < 1 nM | < 10 nM | −5% | < 0.5 µM | – | – | – | – | –
17 | Cc1c(F)cccc1S(=O)(=O)Nc1ccc(F)c(Nc2ncnc3ccc(-n4cnc5c(N6CCC(O)(C(F)(F)F)CC6)cccc54)nc23)c1F | 1 to 10 nM | 10 to 50 nM | −15% | < 0.5 µM | – | – | – | – | –

The next lines start with results.

Row | IC50 (BRAF; [2]) | IC50 (CRAF; [3]) | HCT116 pERK % Ymin (lowest value of the IC50 curve) ([1]; HCT116 cells) | IC50 [1, 4] | IC50 (BRAF; [5]) | IC50 (CRAF; [6]) | IC50 [1, 7] | Structure (SMILES) | HCT116 pERK Ymin % ([1]; HCT116 cells, Ymin in brackets) | further results
18 | < 1 nM | < 10 nM | −8% | < 0.5 µM | – | – | – | CN(CCO)c1cccc2c1ncn2-c1ccc2ncnc(Nc3c(F)ccc(NS(=O)(=O)c4cccc(Cl)c4Cl)c3F)c2n1 | – | –
19 | 1 to 10 nM | 10 to 50 nM | −4% | < 0.5 µM | – | – | – | Cc1c(Cl)cccc1S(=O)(=O)Nc1ccc(F)c(Nc2ncnc3ccc(-n4cnc5c(N6CCC(O)(C(F)(F)F)CC6)cccc54)nc23)c1F | – | –
20 | – | – | – | – | < 1 nM | 10 to 50 nM | < 0.5 µM | Cc1c(Cl)cccc1S(=O)(=O)Nc1ccc(F)c(Nc2ncnc3ccc(-n4cc(C(=O)N5CCOCC5)c5ccccc54)nc23)c1F | −4.4% | –
21 | > 10 nM | > 50 nM | −16% | 0.5 to 1 µM | – | – | – | COCCCN(C)c1cccc2c1ncn2-c1ccc2ncnc(Nc3c(F)ccc(NS(=O)(=O)c4cccc(Cl)c4Cl)c3F)c2n1 | – | –
22 | > 10 nM | 10 to 50 nM | −2% | < 0.5 µM | – | – | – | COc1ccc(S(=O)(=O)Nc2ccc(F)c(Nc3ncnc4ccc(-n5cnc6c(N7CCC(O)(C(F)(F)F)CC7)cccc65)nc34)c2F)c(C)c1Cl | – | –
23 | – | – | – | – | < 1 nM | < 10 nM | < 0.5 µM | Cc1c(F)cccc1S(=O)(=O)Nc1ccc(F)c(Nc2ncnc3ccc(-n4nc(C(=O)N(C)C)c5ccccc54)nc23)c1F | −19% | –
24 | 1 to 10 nM | 10 to 50 nM | 0% | < 0.5 µM | – | – | – | O=S(=O)(Nc1ccc(F)c(Nc2ncnc3ccc(-n4cnc5c(N6C7CCC6COC7)cccc54)nc23)c1F)c1cccc(Cl)c1Cl | – | –
25 | > 10 nM | 10 to 50 nM | −9% | < 0.5 µM | – | – | – | O=S(=O)(Nc1ccc(F)c(Nc2ncnc3ccc(-n4cnc5c(N6CC(CF)C6)cccc54)nc23)c1F)c1cccc(Cl)c1Cl | – | –
26 | – | – | – | – | 1 to 10 nM | < 10 nM | – | COc1ccc(S(=O)(=O)Nc2ccc(F)c(Nc3ncnc4ccc(-n5cnc6ccccc65)nc34)c2F)c(C)c1Cl | – | HCT116 pERK Ymin % ([1]; lowest % inhibition value of the IC50 curve, HCT116): −5%; IC50 ([1]; read-out: HCT116 pERK IC50 in μM, HCT116 cells, 1 h treatment): < 0.5 µM
27 | 1 to 10 nM | 10 to 50 nM | −8% | < 0.5 µM | – | – | – | O=S(=O)(Nc1ccc(F)c(Nc2ncnc3ccc(-n4cnc5c(N6CCCC[C@@H]6CO)cccc54)nc23)c1F)c1cccc(Cl)c1Cl | – | –
28 | 1 to 10 nM | 10 to 50 nM | −6% | < 0.5 µM | – | – | – | CC(C)(O)[C@@H]1CCCN1c1cccc2c1ncn2-c1ccc2ncnc(Nc3c(F)ccc(NS(=O)(=O)c4cccc(Cl)c4Cl)c3F)c2n1 | – | –
29 | – | – | – | – | 1 to 10 nM | < 10 nM | < 0.5 µM | O=S(=O)(Nc1ccc(F)c(Nc2ncnc3ccc(-n4nnc5ccccc54)nc23)c1F)c1ccccc1Cl | 2.4% | –
30 | 1 to 10 nM | 10 to 50 nM | −3.6% | < 0.5 µM | – | – | – | COC1CCN(c2cccc3c2ncn3-c2ccc3ncnc(Nc4c(F)ccc(NS(=O)(=O)c5cccc(F)c5C)c4F)c3n2)CC1 | – | –
31 | 1 to 10 nM | 10 to 50 nM | −5% | < 0.5 µM | – | – | – | CN(CCCO)c1cccc2c1ncn2-c1ccc2ncnc(Nc3c(F)ccc(NS(=O)(=O)c4cccc(Cl)c4Cl)c3F)c2n1 | – | –
32 | – | – | – | – | 1 to 10 nM | 10 to 50 nM | 1 to 10 µM | Cc1c(Cl)cccc1S(=O)(=O)Nc1ccc(F)c(Nc2ncnc3ccc(-n4nc(C(N)=O)cc4C)nc23)c1F | −11% | –
33 | > 10 nM | 10 to 50 nM | −14% | < 0.5 µM | – | – | – | CC1(C#N)CCN(c2cccc3c2ncn3-c2ccc3ncnc(Nc4c(F)ccc(NS(=O)(=O)c5cccc(Cl)c5Cl)c4F)c3n2)CC1 | – | –
34 | 1 to 10 nM | 10 to 50 nM | 8% | < 0.5 µM | – | – | – | Cc1c(F)cccc1S(=O)(=O)Nc1ccc(F)c(Nc2ncnc3ccc(-n4cnc5c(N6CCC[C@H](O)C6)cccc54)nc23)c1F | – | –
35 | – | – | – | – | < 1 nM | 10 to 50 nM | < 0.5 µM | Cc1c(F)cccc1S(=O)(=O)Nc1ccc(F)c(Nc2ncnc3ccc(-n4nc(C(=O)N(C)CCCO)c5ccccc54)nc23)c1F | −6.0% | –
36 | – | – | – | – | 1 to 10 nM | 10 to 50 nM | 1 to 10 µM | NC(=O)c1nn(-c2ccc3ncnc(Nc4c(F)ccc(NS(=O)(=O)c5ccccc5Cl)c4F)c3n2)c2ccccc12 | −1% | –
37 | 1 to 10 nM | 10 to 50 nM | −6% | < 0.5 µM | – | – | – | O=S(=O)(Nc1ccc(F)c(Nc2ncnc3ccc(-n4cnc5c(N6CC(F)C6)cccc54)nc23)c1F)c1cccc(Cl)c1Cl | – | –
